Where two headings read alike, the source gives them in different places.
Legend:
Experiment in all cases: biochemical
[1] = target: B*5401 (Homo sapiens, UniProt P01889, A329T/C349S/D138N/D201E/E176V/E187T/E204Q/E69G/I76V/K202T/L119W/R155S/R180L/S121T/S35A/S48A/V127L/V306I/V36M/Y140L)
[2] = target: DRB1*1201 (Homo sapiens, UniProt P01903+P01911, A100R/A169T/D57E/D86V/F55L/H45Y/K41T/L162R/M171V/P40S/Q125H/Q178H/Q39Y/Q99D/R42G/S66L/T262R/V114A/V67L/W38E/Y59H/Y61H/Y89S)
[3] = target: DRB1*0405 (Homo sapiens, UniProt P01903+P01911, A100R/A169T/D86S/F76Y/I96L/K127E/L162R/M171V/N62H/P40V/Q125Y/R42H/S133A/S149N/S66Y/V115G/V209L/W38E); type: binding
[4] = target: DRB1*0901 (Homo sapiens, UniProt P01903+P01911, A100R/A103E/D57H/D86V/F55Y/F60I/F76Y/I96F/K127E/L162R/M171V/P40D/Q125H/Q99R/R33Q/R42F/S133A/S66N/T210M/V115G/W38K/Y107V/Y59G/Y89S)
[5] = target: DRB5*0101 (Homo sapiens, UniProt P01903+Q30154)
[6] = target: DRB1*1501 (Homo sapiens, UniProt P01903+P01911)
[7] = target: A*2601 (Homo sapiens, UniProt P04439, A114D/A173T/A270S/D101N/D185E/E277Q/E87N/F33Y/G231S/I121R/I218V/K168Q/L180W/L300P/L318F/P208A/P217A/Q86R/Q94H/R138Q/S129P/T187R/T323A/T345S/V100A/V358M); type: binding
[8] = target: HLA-A1 (A*0101) (Homo sapiens, UniProt P04439, A114D/A174V/A182V/D101N/D185E/E176A/E190D/L180R/Q94H/R68K/S129P/T187R/V100A/V91M/W191G)
[9] = target: A*3002 (Homo sapiens, UniProt P04439, D101N/D140H/D185E/E176R/F33S/G80R/H175R/K168Q/Q94H/R138E/R41S/V100E); type: binding
[10] = target: A*2902 (Homo sapiens, UniProt P04439, A270S/D101N/D185E/E176V/E277Q/E87Q/F33T/G231S/H175R/I121M/I218V/I322F/K168Q/L300P/L318F/M331R/P208A/P217A/Q86L/T323A/T345S/V100A/V358M); type: binding

Question: For `CC[C@H](C)[C@H](NC(=O)[C@H](CO)NC(=O)[C@H](Cc1ccccc1)NC(=O)[C@H](CCSC)NC(=O)[C@H](CS)NC(=O)CNC(=O)[C@@H]1CCCN1C(=O)[C@@H](N)CC(C)C)C(=O)N[C@@H](Cc1ccccc1)C(=O)O`, which IC50 [1] is on record?
Answer: 2780 nM

Question: For `CSCC[C@H](NC(=O)CNC(=O)[C@@H]1CCCN1C(=O)[C@H](CCCCN)NC(=O)[C@H](CC(C)C)NC(=O)[C@H](CCCCN)NC(=O)[C@@H](NC(=O)[C@@H]1CCCN1C(=O)[C@@H](N)C(C)C)C(C)C)C(=O)O` [15.074], which IC50 [1] is on record?
Answer: 1660 nM

Question: `CC(C)C[C@H](NC(=O)[C@@H]1CCCN1C(=O)[C@@H](NC(=O)[C@@H](NC(=O)[C@@H]1CCCN1C(=O)[C@@H](N)CC(=O)O)[C@@H](C)O)[C@@H](C)O)C(=O)N[C@@H](C)C(=O)N[C@@H](CCCNC(=N)N)C(=O)N[C@@H](C)C(=O)O` [16.011] was tested. Which IC50 [1] did it give?
Answer: 800 nM

Question: How did the IC50 [2] turn out when `CC[C@H](C)[C@H](NC(=O)CNC(=O)[C@H](Cc1ccc(O)cc1)NC(=O)[C@H](CC(C)C)NC(=O)[C@H](CO)NC(=O)[C@H](CC(C)C)NC(=O)[C@H](CC(C)C)NC(=O)[C@H](CO)NC(=O)[C@H](CC(C)C)NC(=O)[C@H](CCC(=O)O)NC(=O)[C@H](CO)NC(=O)[C@H](CC(C)C)NC(=O)[C@H](CCC(=O)O)NC(=O)[C@H](CCCNC(=N)N)NC(=O)[C@@H](N)CC(C)C)C(=O)O` [Peptide 68.0043] was run?
Answer: 1170 nM

Question: Which IC50 [2] does the source give for `CSCC[C@H](NC(=O)CNC(=O)CNC(=O)[C@H](CCCNC(=N)N)NC(=O)[C@@H](NC(=O)[C@H](CCC(N)=O)NC(=O)[C@H](C)NC(=O)[C@@H](NC(=O)[C@@H](NC(=O)[C@H](CC(C)C)NC(=O)[C@H](Cc1c[nH]cn1)NC(=O)[C@H](Cc1ccc(O)cc1)NC(=O)[C@@H](N)CCCCN)[C@@H](C)O)C(C)C)C(C)C)C(=O)N[C@H](C(=O)N[C@@H](Cc1ccccc1)C(=O)O)C(C)C` [Peptide 68.0120] here?
Answer: 6380 nM

Question: With `CSCC[C@H](NC(=O)[C@H](CC(=O)O)NC(=O)[C@H](CC(N)=O)NC(=O)[C@H](CO)NC(=O)[C@H](CC(C)C)NC(=O)[C@H](CC(C)C)NC(=O)[C@H](Cc1c[nH]cn1)NC(=O)[C@@H](N)CC(C)C)C(=O)N[C@@H](CS)C(=O)N[C@@H](C)C(=O)N[C@@H](CCCNC(=N)N)C(=O)N[C@@H](C)C(=O)N[C@@H](Cc1ccc(O)cc1)C(=O)N[C@@H](CO)C(=O)N[C@@H](CCC(=O)O)C(=O)O` [Peptide 68.0140] as the molecule, how does the IC50 [2] read?
Answer: 1150 nM

Question: How did the IC50 [2] turn out when `CSCC[C@H](NC(=O)[C@H](Cc1ccccc1)NC(=O)[C@H](CCC(=O)O)NC(=O)[C@@H](NC(=O)CNC(=O)[C@H](CCC(N)=O)NC(=O)[C@H](Cc1ccc(O)cc1)NC(=O)[C@H](CCCNC(=N)N)NC(=O)[C@H](CC(C)C)NC(=O)[C@H](Cc1ccccc1)NC(=O)[C@H](CCSC)NC(=O)[C@@H](N)C(C)C)C(C)C)C(=O)N[C@@H](CO)C(=O)N[C@@H](Cc1ccccc1)C(=O)N[C@@H](CC(C)C)C(=O)O` [Peptide 89.0014] was run?
Answer: 1320 nM

Question: Which IC50 [3] does the source give for `CC[C@H](C)[C@H](NC(=O)[C@H](CS)NC(=O)[C@@H](N)CC(N)=O)C(=O)N[C@@H](CC(C)C)C(=O)N[C@@H](CC(C)C)C(=O)N[C@@H](Cc1ccc(O)cc1)C(=O)NCC(=O)N[C@@H](C)C(=O)N[C@@H](C)C(=O)N[C@@H](CC(N)=O)C(=O)N[C@H](C(=O)NCC(=O)N[C@@H](CCCCN)C(=O)N[C@@H](CO)C(=O)N[C@@H](CC(C)C)C(=O)O)[C@@H](C)O` [Peptide 89.0017] here?
Answer: 4060 nM

Question: What about the IC50 [4] of the same molecule?
Answer: 1170 nM

Question: With `CC[C@H](C)[C@H](NC(=O)[C@H](CC(C)C)NC(=O)[C@@H](NC(=O)CNC(=O)[C@H](Cc1c[nH]c2ccccc12)NC(=O)[C@@H](N)CCCCN)C(C)C)C(=O)N[C@@H](CC(C)C)C(=O)N[C@@H](C)C(=O)N[C@@H](CC(C)C)C(=O)N[C@@H](CC(C)C)C(=O)N[C@@H](CCCNC(=N)N)C(=O)N[C@@H](Cc1ccc(O)cc1)C(=O)N[C@@H](CCCCN)C(=O)N[C@@H](CS)C(=O)NCC(=O)O` [Peptide 89.0027] as the molecule, how does the IC50 ([5]; […]) read?
Answer: 569 nM

Question: How did the IC50 [4] turn out when `CC[C@H](C)[C@H](NC(=O)[C@H](CC(C)C)NC(=O)[C@H](CC(C)C)NC(=O)[C@H](CC(C)C)NC(=O)[C@@H](NC(=O)[C@H](CC(C)C)NC(=O)[C@@H](NC(=O)CNC(=O)[C@H](CCCNC(=N)N)NC(=O)[C@@H](N)CC(=O)O)C(C)C)[C@@H](C)CC)C(=O)N[C@@H](CCCNC(=N)N)C(=O)N[C@@H](Cc1ccccc1)C(=O)N[C@@H](CCCCN)C(=O)N[C@@H](CS)C(=O)NCC(=O)O` [Peptide 89.0099] was run?
Answer: 14200 nM

Question: And the IC50 [6]?
Answer: 426 nM

Question: For `CC[C@H](C)[C@H](NC(=O)[C@H](CC(N)=O)NC(=O)[C@@H](NC(=O)[C@@H](NC(=O)[C@@H](NC(=O)[C@H](CC(C)C)NC(=O)[C@H](CC(C)C)NC(=O)[C@@H]1CCCN1C(=O)[C@@H]1CCCN1)[C@@H](C)CC)[C@@H](C)O)[C@@H](C)O)C(=O)N[C@@H](CC(N)=O)C(=O)N1CCC[C@H]1C(=O)N[C@@H](CCSC)C(=O)N[C@@H](CC(C)C)C(=O)N[C@@H](CC(=O)O)C(=O)N[C@@H](C)C(=O)O` [Peptide 89.0139], which IC50 [5] is on record?
Answer: 5020 nM

Question: With `CC[C@H](C)[C@H](NC(=O)[C@H](CCSC)NC(=O)[C@H](CCSC)NC(=O)[C@H](CS)NC(=O)[C@H](CCSC)NC(=O)[C@@H]1CCCN1)C(=O)N[C@@H](CCC(=O)O)C(=O)N1CCC[C@H]1C(=O)N1CCC[C@H]1C(=O)N[C@@H](CCCCN)C(=O)N[C@@H](CC(C)C)C(=O)N[C@@H](CCCNC(=N)N)C(=O)N[C@@H](CO)C(=O)N[C@H](C(=O)N[C@@H](C)C(=O)O)[C@@H](C)O` [Peptide 90.0034] as the molecule, how does the IC50 [2] read?
Answer: 1320 nM

Question: Which IC50 [7] does the source give for `CC[C@H](C)[C@H](NC(=O)[C@H](CC(=O)O)NC(=O)[C@H](CO)NC(=O)[C@@H](N)CC(C)C)C(=O)N[C@@H](CO)C(=O)N[C@@H](CCC(=O)O)C(=O)N[C@@H](Cc1ccc(O)cc1)C(=O)N[C@@H](CCCNC(=N)N)C(=O)N[C@@H](Cc1c[nH]cn1)C(=O)N[C@@H](Cc1ccc(O)cc1)C(=O)O` [Peptide 1549.45] here?
Answer: 2540 nM

Question: What does the source list for `CC[C@H](C)[C@H](N)C(=O)N[C@H](C(=O)N[C@H](C(=O)N[C@@H](CC(N)=O)C(=O)N[C@@H](CC(N)=O)C(=O)N[C@@H](CO)C(=O)NCC(=O)N[C@@H](CO)C(=O)N[C@@H](Cc1ccc(O)cc1)C(=O)O)C(C)C)[C@@H](C)O` [Peptide 1553.02]?
Answer: IC50 [8]: 2360 nM; IC50 [9]: 20 nM; IC50 [10]: 1850 nM; IC50 [7]: 24 nM

Question: With `CC(C)[C@H](N)C(=O)N[C@H](C(=O)N[C@@H](CCCNC(=N)N)C(=O)N[C@@H](CC(N)=O)C(=O)N[C@@H](CC(=O)O)C(=O)N[C@H](C(=O)NCC(=O)N1CCC[C@H]1C(=O)N[C@@H](Cc1ccc(O)cc1)C(=O)O)C(C)C)[C@@H](C)O` [Peptide 1610.05] as the molecule, how does the IC50 [9] read?
Answer: 20 nM

Question: What about the IC50 [10] of the same molecule?
Answer: > 20000 nM

Question: And the IC50 [7]?
Answer: 4880 nM

Question: How did the IC50 [8] turn out when `C[C@H](NC(=O)[C@H](CCC(N)=O)NC(=O)[C@@H](N)CCC(N)=O)C(=O)N[C@H](C(=O)N1CCC[C@H]1C(=O)NCC(=O)N1CCC[C@H]1C(=O)N[C@@H](C)C(=O)N[C@@H](Cc1ccc(O)cc1)C(=O)O)[C@@H](C)O` [Peptide 1610.06] was run?
Answer: 3430 nM

Question: And the IC50 [9]?
Answer: 13 nM

Question: And the IC50 [10]?
Answer: 310 nM

Question: And the IC50 [7]?
Answer: 1320 nM

Question: For `CC[C@H](C)[C@H](NC(=O)[C@H](CCC(=O)O)NC(=O)[C@H](CCC(=O)O)NC(=O)[C@H](CC(C)C)NC(=O)[C@@H](NC(=O)[C@H](CCC(=O)O)NC(=O)[C@@H](NC(=O)[C@@H](N)C(C)C)[C@@H](C)O)[C@@H](C)O)C(=O)N[C@H](C(=O)NCC(=O)N[C@@H](Cc1ccc(O)cc1)C(=O)O)[C@@H](C)O` [Peptide 9012.0178], which IC50 [7] is on record?
Answer: 3510 nM

Reference: US9340577B2, “HLA binding motifs and peptides and their uses” (priority 1992, dated 2016)
